{
  "source": "patent US20100190187A1",
  "about": "“Screening Assays for Antagonists and Analyses of Cardiac Hypertrophy” (The Regents of the University of Michigan Office of …, priority 2006, published 2010)",
  "target": "T1, mVDR (Rattus norvegicus, UniProt P13053)",
  "T1 sequence (P13053 1-423)": "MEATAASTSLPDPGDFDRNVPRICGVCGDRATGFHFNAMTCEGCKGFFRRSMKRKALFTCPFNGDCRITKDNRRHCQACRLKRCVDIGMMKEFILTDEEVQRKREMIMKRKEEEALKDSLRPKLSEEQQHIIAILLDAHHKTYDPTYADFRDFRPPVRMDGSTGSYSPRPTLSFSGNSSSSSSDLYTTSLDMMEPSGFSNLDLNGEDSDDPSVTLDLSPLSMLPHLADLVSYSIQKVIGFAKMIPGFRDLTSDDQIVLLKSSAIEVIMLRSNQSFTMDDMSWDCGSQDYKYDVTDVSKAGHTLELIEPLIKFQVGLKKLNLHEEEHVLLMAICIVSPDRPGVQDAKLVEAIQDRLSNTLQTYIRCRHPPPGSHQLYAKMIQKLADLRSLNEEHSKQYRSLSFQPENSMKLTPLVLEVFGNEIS",
  "experiment": "Saturation binding of [3H] 1α,25(OH)2 vitamin D3 to plasma membrane fractions from rat whole heart homogenates",
  "settings": "plasma membrane fractions (7,700-40,000×g) from rat whole heart homogenates",
  "data": [
    {"substance": "[^3H] 1α,25(OH)2 vitamin D3", "values": [
      {"measurement": "Bmax of specific binding to mVDR (Scatchard transformation)", "result": 186, "unit": "fmol/mg"},
      {"measurement": "Kd", "setting": "read-out: Kd of specific binding to mVDR (Scatchard transformation)", "result": 0.696, "unit": "nM"}
    ]}
  ]
}
